Test results from PubChem BioAssay AID1963576 (National Center for Advancing Translational Sciences (NCATS), 2024).
The entries are a selection whose mix differs from that of the whole data set. Inconclusive results are not listed. Calls of active or inactive are those of the source. Calls follow the shape of the dose curve; as a rule, active = well fitted inhibition curve with a large enough effect; inconclusive = small, poorly fitted or top-dose-only effect; inactive = no such curve, though single readings can be large or run the other way.

Test: Primary qHTS assay for Inhibitors of ovarian cancer metastasis using an organotypic tumor microenvironment (TME) model.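 Also: plate controls were DMSO wells for no effect and tomatine positive control wells for full effect; nearly all actives have a fitted effect of over 65% in size.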
Details: SKOV3ip1-GFP adhesion/invasion on 3D omental model, fluorescence; at 23.2 µM (top of the series)
Text: PI: Ernst Lengyel MD., Ph.D. Department of Obstetrics and Gynecology, Section of Gynecologic Oncology University of Chicago Medicine, Chicago, Illinois. The tumor microenvironment (TME) is a key determinant of metastatic efficiency. We performed a quantitative high-throughput screen (qHTS) of diverse medicinal chemistry tractable scaffolds (44,420 compounds) and pharmacologically active small molecules (386 compounds) using a layered organotypic, robust assay representing the ovarian cancer metastatic TME. This 3D model contains primary human mesothelial cells, fibroblasts, and extracellular matrix, to which fluorescently labeled ovarian cancer cells are added. Initially, 100 compounds inhibiting ovarian cancer adhesion/invasion to the 3D model in a dose-dependent manner were identified. […]
PROTOCOL TABLE (as described by Inglese J, Shamu CE and Guy RK. 2007) SEQUENCE No. (e.g., 1, 2, 3, etc.); […] […] 11; Detection; Fluorescence, excitation filter 488 nm, emission filter 509 nm. […] The number of GFP-labeled cells analyzed using a fluorescent cytometer TTP LabTech Acumen eX3 using 488 nm excitation filter and 509 nm emission filter. […] Yasgar A, Shinn P, Jadhav A, Auld DS, Michael S, Zheng W, Austin CP, Inglese J and Simeonov A, Compound Management for Quantitative High-Throughput Screening. […]

SMILES | activity change, negative = inhibition
CC1=C2[N-][C@@](C)([C@@H]3N=C(C(C)=C4N=C(C=C5N=C1[C@@](C)(CC(N)=O)[C@H]5CCC(N)=O)C(C)(C)[C@H]4CCC(N)=O)[C@](C)(CCC(=O)NC[C@@H](C)OP(=O)([O-])O[C@H]1[C@@H](O)[C@@H](n4cnc5cc(C)c(C)cc54)O[C@H]1CO)[C@H]3CC(N)=O)[C@@](C)(CC(N)=O)[C@@H]2CCC(N)=O.[C-]#N.[Co+3] | inactive: 4.63%
